Experimental data from ChEMBL document CHEMBL5108017.

The chains behind the UniProt entries cited, without tags or fusion partners.
UniProt P35372, whole entry, looked up: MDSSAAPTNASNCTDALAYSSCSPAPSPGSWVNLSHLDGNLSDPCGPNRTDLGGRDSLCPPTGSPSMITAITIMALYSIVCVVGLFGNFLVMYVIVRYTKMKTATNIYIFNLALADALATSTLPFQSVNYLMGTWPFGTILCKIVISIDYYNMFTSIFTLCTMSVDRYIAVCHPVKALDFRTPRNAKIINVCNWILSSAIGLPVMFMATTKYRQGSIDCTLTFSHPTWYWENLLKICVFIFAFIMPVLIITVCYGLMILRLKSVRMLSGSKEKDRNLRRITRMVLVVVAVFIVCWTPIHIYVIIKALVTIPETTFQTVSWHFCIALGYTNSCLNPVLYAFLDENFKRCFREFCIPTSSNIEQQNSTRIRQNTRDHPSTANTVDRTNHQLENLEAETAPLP
UniProt Q60492, whole entry, looked up: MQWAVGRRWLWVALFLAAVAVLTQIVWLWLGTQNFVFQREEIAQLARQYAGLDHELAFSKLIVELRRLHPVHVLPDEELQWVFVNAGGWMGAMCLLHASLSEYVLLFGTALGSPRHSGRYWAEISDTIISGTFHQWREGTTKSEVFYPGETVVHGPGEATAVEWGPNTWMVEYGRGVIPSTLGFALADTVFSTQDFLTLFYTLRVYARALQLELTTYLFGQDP

Experiments:
Mu-type opioid receptor = Mu-type opioid receptor (Homo sapiens, UniProt P35372); settings: cho-k1
[1] = target: Sigma non-opioid intracellular receptor 1 (Cavia porcellus, UniProt Q60492)

Row | SMILES | Ki (Mu-type opioid receptor) | Ki [1]
1 | C[C@@H]1[C@@H]2Cc3ccc(O)cc3[C@@]1(C)CCN2CCc1ccccc1 | 0.0039 µM | –
2 | O=C1COC2(CCN(CCc3ccccc3)CC2)CN1c1ccccc1 | – | 0.057 µM
